Experimental findings from PMC12282092, “Discovery of a non-nucleoside inhibitor that binds to a novel site in the palm domain of the respiratory syncytial virus RNA-dependent RNA polymerase” (Journal of Virology, 2025) are described below.

The chains behind the UniProt entries cited, without tags or fusion partners. Where a name states a change or a piece, a line headed by the entry shows the natural chain unless it says otherwise.
UniProt P28887: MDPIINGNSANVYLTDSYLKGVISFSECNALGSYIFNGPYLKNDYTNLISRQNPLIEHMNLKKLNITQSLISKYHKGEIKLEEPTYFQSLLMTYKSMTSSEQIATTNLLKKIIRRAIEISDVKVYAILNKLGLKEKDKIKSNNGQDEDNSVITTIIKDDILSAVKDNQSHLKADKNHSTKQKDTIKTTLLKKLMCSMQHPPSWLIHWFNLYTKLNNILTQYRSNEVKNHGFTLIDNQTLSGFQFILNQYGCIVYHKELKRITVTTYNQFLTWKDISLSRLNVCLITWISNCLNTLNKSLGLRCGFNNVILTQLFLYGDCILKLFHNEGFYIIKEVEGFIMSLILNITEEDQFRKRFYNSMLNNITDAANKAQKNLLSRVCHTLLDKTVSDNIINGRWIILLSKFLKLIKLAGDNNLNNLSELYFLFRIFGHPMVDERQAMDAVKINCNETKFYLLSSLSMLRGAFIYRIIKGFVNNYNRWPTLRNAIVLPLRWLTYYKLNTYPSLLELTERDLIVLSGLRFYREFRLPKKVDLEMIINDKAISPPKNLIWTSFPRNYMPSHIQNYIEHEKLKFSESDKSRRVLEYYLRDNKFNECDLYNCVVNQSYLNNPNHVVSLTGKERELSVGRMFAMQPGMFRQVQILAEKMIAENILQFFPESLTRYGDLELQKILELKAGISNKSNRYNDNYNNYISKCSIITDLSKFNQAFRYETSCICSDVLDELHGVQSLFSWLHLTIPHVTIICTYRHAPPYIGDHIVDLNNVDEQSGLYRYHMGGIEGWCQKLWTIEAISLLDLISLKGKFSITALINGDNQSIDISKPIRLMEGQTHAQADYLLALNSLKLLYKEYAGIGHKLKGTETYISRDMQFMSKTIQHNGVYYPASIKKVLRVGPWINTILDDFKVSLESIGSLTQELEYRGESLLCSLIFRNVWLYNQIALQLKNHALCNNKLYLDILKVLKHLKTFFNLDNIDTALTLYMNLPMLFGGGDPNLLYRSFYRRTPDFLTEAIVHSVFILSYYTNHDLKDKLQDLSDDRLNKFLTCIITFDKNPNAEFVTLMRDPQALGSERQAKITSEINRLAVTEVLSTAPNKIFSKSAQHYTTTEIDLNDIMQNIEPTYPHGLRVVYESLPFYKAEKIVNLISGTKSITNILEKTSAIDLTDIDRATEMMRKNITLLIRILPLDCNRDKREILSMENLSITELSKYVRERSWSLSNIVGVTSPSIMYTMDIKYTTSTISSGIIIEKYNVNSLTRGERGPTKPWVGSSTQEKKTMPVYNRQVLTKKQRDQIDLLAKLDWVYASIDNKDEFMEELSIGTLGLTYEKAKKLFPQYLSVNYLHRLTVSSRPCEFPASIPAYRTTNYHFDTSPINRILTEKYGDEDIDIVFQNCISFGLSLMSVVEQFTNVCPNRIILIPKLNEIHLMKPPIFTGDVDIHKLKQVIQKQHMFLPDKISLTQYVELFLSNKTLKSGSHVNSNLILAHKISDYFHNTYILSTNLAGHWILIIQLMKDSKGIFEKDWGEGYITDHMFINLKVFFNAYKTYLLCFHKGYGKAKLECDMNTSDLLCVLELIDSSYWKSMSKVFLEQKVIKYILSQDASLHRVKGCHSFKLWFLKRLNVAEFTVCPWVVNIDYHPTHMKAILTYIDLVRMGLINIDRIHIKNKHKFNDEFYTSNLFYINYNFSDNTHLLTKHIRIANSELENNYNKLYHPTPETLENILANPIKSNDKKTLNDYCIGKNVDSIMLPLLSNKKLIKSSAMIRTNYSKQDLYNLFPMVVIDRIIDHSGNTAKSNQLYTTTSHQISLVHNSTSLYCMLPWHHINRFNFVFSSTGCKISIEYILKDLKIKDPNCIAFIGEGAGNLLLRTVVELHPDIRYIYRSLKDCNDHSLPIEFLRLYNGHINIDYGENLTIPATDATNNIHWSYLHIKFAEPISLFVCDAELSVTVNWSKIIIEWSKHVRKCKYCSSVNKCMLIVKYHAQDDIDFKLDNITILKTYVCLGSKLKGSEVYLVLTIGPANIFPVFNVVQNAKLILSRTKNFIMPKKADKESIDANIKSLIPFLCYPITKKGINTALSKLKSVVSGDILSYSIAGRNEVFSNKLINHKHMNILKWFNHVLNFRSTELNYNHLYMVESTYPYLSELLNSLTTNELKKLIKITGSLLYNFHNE

Test [1] concerns the target T1, RSV L+P (Human respiratory syncytial virus A, UniProt P28887).
T1 construct: Biochemical activity of 1 and 22 against full-length RSV L+P; Twin-Strep-tag (N); made in house; host or cells: Sf9 insect cells (baculovirus, pFastBac Dual)
Briefly: SPR assay. The following applies: read-out: SPR ka. The test is classed as binding. On the technique in general: Surface plasmon resonance follows binding to a sensor surface in real time, without labels.

The target in test [2] is T1, RSV L+P. In words: Single-nucleotide incorporation (primer extension) assays. Conditions: 50 µM 22, +1 and +3 positions. It counts as biochemical. Here is the method:
A mixture of 0.2 µM RSV L+P, 0.2 µM RNA template (TrC-14), and 400 µM primer (sequences indicated in figure) was incubated in buffer consisting of 50 mM Tris pH 7.4, 2 mM DTT, and 6 mM MgCl2 with either 50 µM compound 22 or vehicle (5% DMSO) at 30°C for 10 min ([36]). Reactions were initiated by the addition of 100 nM [α-^32P]NTP (3,000 Ci/mmol) tracer and run for an additional 30 min before quenching with an equal volume of gel loading buffer (90% formamide, 50 mM EDTA, 0.05% Xylene Cyanol and Bromophenol Blue). Gel images were obtained and processed as described for the de novo assay, and data were normalized to untreated controls to determine percent inhibition.

For the molecule `CN1C(=O)C2(CCN(c3cnc(C#N)c(Cl)c3)CC2)c2cc(Br)ccc21` [Compound 22, 5-(5-bromo-1-methyl-2-oxospiro[indoline-3,4'-piperidin]-1'-yl)-3-chloropicolinonitrile], on RSV L+P [1], the kon was 128000 M⁻¹ s⁻¹. Further, the “inhibition of primer extension, Le-11 template” value against RSV L+P [2] is recorded as “inhibited primer extension”.
